Laboratory results from PMC11502128 (Journal of Lipids, 2024).

Legend:
[1] = tested on: HepG2 cells; test: Cell viability assessment (crystal violet), HepG2; type: cell-based, human; conditions: triterpenoids at 25 and 100 μM; lovastatin 50 μM
[2] = tested on: lipolysis-stimulated differentiated 3T3-L1 adipocytes; conditions: 50 μM, 3 days

Structure (SMILES): CC[C@H](C)C(=O)O[C@H]1C[C@@H](C)C=C2C=C[C@H](C)[C@H](CC[C@@H]3C[C@@H](O)CC(=O)O3)[C@H]21 [lovastatin, reference compound]
- cytotoxicity in the HepG2 model (abstract) [1]: cytotoxic
- cytotoxic effects on lipolysis-stimulated differentiated adipocytes [2]: had cytotoxic effects
